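Following 48 hours of exposure in 96-well plates, responses at five concentrations were used to interpolate endpoints linearly. GI50 is the concentration that inhibits growth by half. Definition used: TGI = concentration required for complete inhibition of growth.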
Columns and labels:
Test in all cases: NCI anticancer screen, dose series, 48 h
[1] = test system: SN12C renal
[2] = test system: SK-MEL-5 melanoma
[3] = test system: HCT-15 colon
[4] = test system: IGROV1 ovarian
[5] = test system: M14 melanoma
[6] = test system: DU-145 prostate
[7] = test system: EKVX NSCLC
[8] = test system: UACC-62 melanoma
[9] = test system: ACHN renal
[10] = test system: LOX IMVI melanoma
[11] = test system: NCI-H322M lung
[12] = test system: SK-OV-3 ovarian
[13] = test system: MCF7 breast
[14] = test system: OVCAR-3 ovarian
[15] = test system: HL-60(TB) leukemia
[16] = test system: PC-3 prostate
[17] = test system: RPMI-8226 leukemia
[18] = test system: MOLT-4 leukemia
[19] = test system: HCC-2998 colon
[20] = test system: SNB-19 CNS
[21] = test system: 786-0 renal
[22] = test system: NCI/ADR-RES ovarian
[23] = test system: K-562 leukemia
[24] = test system: MDA-MB-435
[25] = test system: SK-MEL-2 melanoma
[26] = test system: SF-539 CNS
[27] = test system: SF-295 CNS
[28] = test system: BT-549 breast
[29] = test system: HCT-116 colon
[30] = test system: OVCAR-5 ovarian
[31] = test system: CAKI-1 renal
[32] = test system: MALME-3M melanoma
[33] = test system: SF-268 CNS
[34] = test system: RXF 393 renal
[35] = test system: CCRF-CEM leukemia
[36] = test system: U251 CNS
[37] = test system: HT29 colon
[38] = test system: OVCAR-4 ovarian
[39] = test system: NCI-H23 lung
[40] = test system: HS 578T breast
[41] = test system: COLO 205 colon
[42] = test system: NCI-H226 lung
[43] = test system: HOP-92 NSCLC
[44] = test system: SW-620 colon
[45] = test system: A549 NSCLC
[46] = test system: KM12 colon
[47] = test system: UO-31 renal
[48] = test system: TK-10 renal
[49] = test system: OVCAR-8 ovarian
[50] = test system: HOP-62 NSCLC
[51] = test system: UACC-257 melanoma
[52] = test system: MDA-N
[53] = test system: NCI-H522 lung
[54] = test system: MDA-MB-231 breast
[55] = test system: T-47D breast
[56] = test system: SNB-75 CNS
[57] = test system: SK-MEL-28 melanoma

NS(=O)(=O)c1ccc(NC2=NCC(CI)S2)cc1 (centres undefined)
GI50 [1]: > 100 µM | TGI [1]: > 100 µM | GI50 [2]: > 100 µM | TGI [2]: > 100 µM | GI50 [3]: > 100 µM | TGI [3]: > 100 µM | GI50 [4]: > 100 µM | TGI [4]: > 100 µM | GI50 [5]: > 100 µM | TGI [5]: > 100 µM | GI50 [6]: > 100 µM | TGI [6]: > 100 µM | GI50 [7]: > 100 µM | TGI [7]: > 100 µM | GI50 [8]: > 100 µM | TGI [8]: > 100 µM | GI50 [9]: > 100 µM | TGI [9]: > 100 µM | GI50 [10]: > 100 µM | TGI [10]: > 100 µM | GI50 [11]: > 100 µM | TGI [11]: > 100 µM | GI50 [12]: > 100 µM | TGI [12]: > 100 µM | GI50 [13]: > 100 µM | TGI [13]: > 100 µM | GI50 [14]: > 100 µM | TGI [14]: > 100 µM | GI50 [15]: > 100 µM | TGI [15]: > 100 µM | GI50 [16]: > 100 µM | TGI [16]: > 100 µM | GI50 [17]: 33.5 µM | TGI [17]: > 100 µM | GI50 [18]: > 100 µM | TGI [18]: > 100 µM | GI50 [19]: > 100 µM | TGI [19]: > 100 µM | GI50 [20]: > 100 µM | TGI [20]: > 100 µM | GI50 [21]: > 100 µM | TGI [21]: > 100 µM | GI50 [22]: > 100 µM | TGI [22]: > 100 µM | GI50 [23]: > 100 µM | TGI [23]: > 100 µM | GI50 [24]: > 100 µM | TGI [24]: > 100 µM | GI50 [25]: > 100 µM | TGI [25]: > 100 µM | GI50 [26]: > 100 µM | TGI [26]: > 100 µM | GI50 [27]: > 100 µM | TGI [27]: > 100 µM | GI50 [28]: > 100 µM | TGI [28]: > 100 µM | GI50 [29]: > 100 µM | TGI [29]: > 100 µM | GI50 [30]: > 100 µM | TGI [30]: > 100 µM | GI50 [31]: > 100 µM | TGI [31]: > 100 µM | GI50 [32]: > 100 µM | TGI [32]: > 100 µM | GI50 [33]: > 100 µM | TGI [33]: > 100 µM | GI50 [34]: > 100 µM | TGI [34]: > 100 µM | GI50 [35]: > 100 µM | TGI [35]: > 100 µM | GI50 [36]: > 100 µM | TGI [36]: > 100 µM | GI50 [37]: > 100 µM | TGI [37]: > 100 µM | GI50 [38]: > 100 µM | TGI [38]: > 100 µM | GI50 [39]: > 100 µM | TGI [39]: > 100 µM | GI50 [40]: > 100 µM | TGI [40]: > 100 µM | GI50 [41]: > 100 µM | TGI [41]: > 100 µM | GI50 [42]: 95 µM | TGI [42]: > 100 µM | GI50 [43]: > 100 µM | TGI [43]: > 100 µM | GI50 [44]: > 100 µM | TGI [44]: > 100 µM | GI50 [45]: > 100 µM | TGI [45]: > 100 µM | GI50 [46]: > 100 µM | TGI [46]: > 100 µM | GI50 [47]: > 100 µM | TGI [47]: > 100 µM | GI50 [48]: > 100 µM | TGI [48]: > 100 µM | GI50 [49]: > 100 µM | TGI [49]: > 100 µM | GI50 [50]: > 100 µM | TGI [50]: > 100 µM | GI50 [51]: > 100 µM | TGI [51]: > 100 µM | GI50 [52]: > 100 µM | TGI [52]: > 100 µM | GI50 [53]: > 100 µM | TGI [53]: > 100 µM | GI50 [54]: > 100 µM | TGI [54]: > 100 µM | GI50 [55]: > 100 µM | TGI [55]: > 100 µM | GI50 [56]: 98.4 µM | TGI [56]: > 100 µM | GI50 [57]: > 100 µM | TGI [57]: > 100 µM

Reference: PubChem BioAssay (NCI)
